These results are taken from patent US20100260671A1, “COMPOUNDS AND METHODS FOR THE DIAGNOSIS AND TREATMENT OF AMYLOID ASSOCIATED DISEASES” (THE REGENTS OF THE UNIVERSITY OF CALIFORNIA, priority 2007, published 2010).

By UniProt entry, the sequences of proteins in these tests, tags left out. Residues count along the entry.
UniProt P05067, 672-713 limits assumed: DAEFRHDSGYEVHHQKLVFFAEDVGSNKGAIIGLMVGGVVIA

Structures are written as SMILES. Like-named read-outs stand apart in the source and are kept apart here.

Experiment [1] has as its target Aβ fibrils (binding of anti-Aβ IgG clone AMY-33) (Homo sapiens, UniProt P05067). Put plainly: ELISA-based assay: inhibition of anti-Aβ IgG (clone AMY-33) binding to Aβ fibrils. The note with it: same conditions as for clone 6E10. As for the experimental part:
An IC50 of 0.4 μM (FIG. 2, panel b) for ThT with this IgG (clone AMY-33) was measured under the same conditions used to assay the first anti-Aβ IgG (clone 6E10). […] No inhibition of the interaction between the IgGs and Aβ fibrils in control experiments using 1-naphthol-4-sulfonate were observed (FIG. 2, panel c).
Excess solutions were then discarded.

Experiment [2] deals with Aβ fibrils (binding of anti-Aβ IgG clone 6E10) (Homo sapiens, UniProt P05067). The experiment is described as follows: ELISA-based assay: inhibition of anti-Aβ IgG (clone 6E10) binding to Aβ fibrils.

Turning to `Cc1ccc2c(c1)sc(-c1ccc(N(C)C)cc1)[n+]2C.[Cl-]` [ThT, Thioflavin T], the IC50 is 400 nM in experiment [1]; around 1000 nM in experiment [2] (read-out: IC50, control procedure with 0.3 μM Aβ peptide, clone 6E10, 0.3 μM solution of Aβ peptide in the control procedure); 60000 nM in experiment [2] (read-out: IC50, fibrils incubated with ThT prior to depositing into wells, clone 6E10, Aβ fibrils 1.3 μM pre-incubated with ThT); 5000 nM in experiment [2] (read-out: IC50 for the binding of the anti-Aβ IgG to the Aβ fibrils, clone 6E10, 0.16 μg mL−1, fibrils deposited from 1.3 μM Aβ peptide, then incubated with ThT).
